Reference: patent publication US12290596B2, “Compositions and methods for the treatment of opioid overdose” (priority 2021, dated 2025)

Details: nalmefene HCl 3 mg IN vs naloxone HCl 4 mg IN

Structure (SMILES): C=C1CC[C@@]2(O)[C@H]3Cc4ccc(O)c5c4[C@@]2(CCN3CC2CC2)[C@H]1O5 [Nalmefene, 17-cyclopropylmethyl-4,5α-epoxy-6-methylenemorphinan-3,14-diol]
- AUC0-inf of nalmefene compared to naloxone: 2.0 fold
- Cmax of nalmefene compared to naloxone: 1.2 fold
